Measurements: paper PMC5623949, “Exploiting the 2-Amino-1,3,4-thiadiazole Scaffold To Inhibit Trypanosoma brucei Pteridine Reductase in Support of Early-Stage Drug Discovery” (ACS Omega, 2017)

Molecular target: T1, TbPTR1 (Trypanosoma brucei brucei, UniProt O76290)
T1 construct: made in house
T1 sequence (O76290 1-268): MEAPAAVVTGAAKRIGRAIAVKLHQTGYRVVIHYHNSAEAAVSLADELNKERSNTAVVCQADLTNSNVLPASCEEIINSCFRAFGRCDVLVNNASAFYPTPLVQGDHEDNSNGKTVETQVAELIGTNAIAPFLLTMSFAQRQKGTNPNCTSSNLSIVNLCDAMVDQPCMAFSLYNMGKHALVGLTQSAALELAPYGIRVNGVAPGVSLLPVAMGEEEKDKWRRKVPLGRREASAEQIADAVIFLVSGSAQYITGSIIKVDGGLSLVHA
Assay: biochemical

Work on CCc1nc(N)nc(N)c1-c1ccc(Cl)cc1 [pyrimethamine, reference compound] yielded an IC50 of 0.09 µM.
